Experimental data: patent US8674100B2, “Inhibitors of C-FMS kinase” (Janssen Pharmaceutica, N.V., priority 2006, dated 2014)

Chains of the proteins cited; added tags and fusions are not shown. Residues count along the entry.
UniProt P07333, 20-972: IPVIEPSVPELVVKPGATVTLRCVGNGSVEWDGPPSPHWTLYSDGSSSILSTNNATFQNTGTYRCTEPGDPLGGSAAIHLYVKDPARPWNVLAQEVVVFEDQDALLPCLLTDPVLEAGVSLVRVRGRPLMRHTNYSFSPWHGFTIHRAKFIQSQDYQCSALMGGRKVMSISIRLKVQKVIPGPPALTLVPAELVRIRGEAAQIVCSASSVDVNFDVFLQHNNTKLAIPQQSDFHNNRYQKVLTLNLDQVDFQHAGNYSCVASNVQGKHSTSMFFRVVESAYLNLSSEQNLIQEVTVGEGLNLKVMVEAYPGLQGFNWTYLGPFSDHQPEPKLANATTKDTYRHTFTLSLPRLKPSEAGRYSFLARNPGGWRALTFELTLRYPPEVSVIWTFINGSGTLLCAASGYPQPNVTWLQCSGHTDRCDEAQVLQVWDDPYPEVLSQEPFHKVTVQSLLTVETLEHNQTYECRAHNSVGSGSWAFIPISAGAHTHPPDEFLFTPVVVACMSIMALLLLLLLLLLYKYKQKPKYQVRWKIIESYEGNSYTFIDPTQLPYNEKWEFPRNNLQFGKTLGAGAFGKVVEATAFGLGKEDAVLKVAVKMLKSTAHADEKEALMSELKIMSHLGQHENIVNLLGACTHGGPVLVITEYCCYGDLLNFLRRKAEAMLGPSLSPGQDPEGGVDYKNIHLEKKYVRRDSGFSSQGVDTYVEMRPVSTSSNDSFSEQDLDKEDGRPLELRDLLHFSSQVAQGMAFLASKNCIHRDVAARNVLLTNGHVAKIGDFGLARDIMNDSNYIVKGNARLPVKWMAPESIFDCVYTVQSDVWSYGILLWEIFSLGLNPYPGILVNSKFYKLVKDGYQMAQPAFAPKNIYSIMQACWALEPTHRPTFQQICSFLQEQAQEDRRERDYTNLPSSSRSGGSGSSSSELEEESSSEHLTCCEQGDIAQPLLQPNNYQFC

Molecular target: CSF-1R (c-fms) (Homo sapiens (Human), UniProt P07333)
Assay: Fluorescence polarization competition immunoassay (1 nM c-fms; peptide Pi assay)
Type: biochemical
Conditions: read-out: 1 nM c-fms; peptide Pi assay - IC-50

**Q.** How did the pIC50 turn out when `N#Cc1c[nH]c(C(=O)Nc2ccc(C(CO)CO)cc2C2=CCCCC2)n1` [Example 11, 4-Cyano-1H-imidazole-2-carboxylic acid [2-cyclohex-1-enyl-4-(2-hydroxy-1-hydroxymethyl-ethyl)-phenyl]-amide] was run?
**A.** < 7.22

pIC50: −log10 of the molar value.
